This assay relates to human σ1 receptor and human μ-opioid receptor. As to the kind of experiment: μ and σ1 dual binding: human σ1 receptor radioligand assay ([3H](+)-pentazocine, transfected HEK-293 membranes) and human μ-opioid receptor radioligand assay ([3H]-DAMGO, transfected CHO-K1 membranes). Conditions: one combined class for Ki-μ and Ki-σ1.

In the case of `Cn1nccc1N(c1ccccc1)C1CCN(Cc2ccccc2)CC1`, the “μ and σ1 dual binding” value is “++”.
